One experiment concerns the target cPLA2 (Homo sapiens, UniProt P47712). Briefly: cPLA2 Inhibitory Activity. The settings on record: read-out: IC50 (cPLA2 inhibitory activity); 1-palmitoyl-2-[14C]-arachidonoyl-sn-glycero-3-phosphocholine 2.5 μM, sn-1,2-dioleoylglycerol 1.25 μM; pH 7.5, 15 min at 37° C. Format: biochemical. The method, then: Test Example 1 cPLA2 Inhibitory Activity The compounds of the present invention were tested for the cPLA2 inhibitory activity according to the method disclosed in […]. Roberts, […], and J. E. Putnam, J. Biol. Chem., 1991, 266, 5268-5272 as outlined below. […] The reaction mixture includes 50 mM HEPES buffer (pH 7.5), 1 mM calcium chloride, 150 mM sodium chloride, 0.1 mg/ml bovine serum albumin, and 1.7 mM dithiothreitol. To the reaction mixture was added the compound of the present invention and the substrate solution. The reaction was allowed to start by adding an enzyme and continued for 15 min at 37° C. The fatty acids released by the reaction were extracted by the method described in V. P. Dole, and H. Meinertz, J. Biol. Chem., 1960, 235, 2595-2599 and its radiation activity was measured on a liquid scintillation counter. Control was obtained by conducting the experiment in the same manner except that a compound of the present invention was not added.

Sequences of proteins named here, by UniProt entry; tags and fusion partners are left off.
UniProt P47712, whole entry: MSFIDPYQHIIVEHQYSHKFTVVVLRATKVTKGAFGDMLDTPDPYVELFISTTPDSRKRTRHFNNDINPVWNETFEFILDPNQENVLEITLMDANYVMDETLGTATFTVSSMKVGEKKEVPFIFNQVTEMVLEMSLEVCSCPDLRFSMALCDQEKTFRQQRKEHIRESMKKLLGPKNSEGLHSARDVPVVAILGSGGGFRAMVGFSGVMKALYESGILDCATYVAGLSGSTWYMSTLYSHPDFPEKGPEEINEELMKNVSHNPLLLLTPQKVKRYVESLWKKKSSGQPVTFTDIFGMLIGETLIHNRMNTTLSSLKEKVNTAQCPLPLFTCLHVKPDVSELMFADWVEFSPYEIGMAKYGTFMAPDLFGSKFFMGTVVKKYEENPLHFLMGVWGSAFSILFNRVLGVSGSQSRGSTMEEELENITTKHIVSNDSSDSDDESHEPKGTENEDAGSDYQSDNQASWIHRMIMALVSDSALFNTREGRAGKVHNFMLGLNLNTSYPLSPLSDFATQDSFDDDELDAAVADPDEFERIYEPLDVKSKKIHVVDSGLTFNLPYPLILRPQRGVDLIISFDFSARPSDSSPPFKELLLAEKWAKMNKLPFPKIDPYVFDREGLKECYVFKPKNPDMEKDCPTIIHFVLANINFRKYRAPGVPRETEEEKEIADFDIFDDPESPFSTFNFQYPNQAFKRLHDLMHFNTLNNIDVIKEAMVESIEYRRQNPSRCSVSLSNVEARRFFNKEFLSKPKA

The subject of experiment [1] is production of prostaglandin E2 by human fibroblasts. Briefly: Inhibition of Production of Prostaglandin E2 in Human Fibroblasts (IL-1 stimulation). Conditions: read-out: IC50 (inhibition of production of prostaglandin E2); human fibroblasts under stimulation with IL-1. As for the experimental part: Test Example 2 Inhibition of Production of Prostaglandin E2 in Human Fibroblasts.
In order to examine the availability of the composition for inhibiting cytosolic phospholipase A2 (cPLA2) on the cells, the compounds of the present invention were tested for the effect on the production of prostaglandin E2 by human fibroblasts under the stimulation with IL-1 according to the method of J. M. Dayer et al (CACHECTIN/TUMOR NECROSIS FACTOR STIMULATES COLLAGENASE AND PROSTAGLANDIN E2 PRODUCTION BY HUMAN SYNOVIAL CELLS AND DERMAL FIBROBLASTS; J. M. Dayer, B, Beutler and A, Cerami, J. EXP. Med., 1985, 162, 2163-2168.).

As a reminder, the IC50 is the concentration at which inhibition is half-maximal. Regarding `CC(C)Oc1cccc(-c2ccccc2)c1O[C@@H]1C[C@@H](CNC(=O)c2ccc(/C=C3\SC(=O)NC3=O)cc2)N(C(=O)c2ccccc2C(=O)c2ccc(F)cc2)C1`, the IC50 on cPLA2 worked out at 46 nM.

With `CN1CCN(c2ccccc2O[C@@H]2C[C@@H](CNC(=O)c3ccc(/C=C4\SC(=O)NC4=O)cc3)N(C(=O)c3ccccc3C(=O)c3ccc(F)cc3)C2)CC1`, the IC50 on cPLA2 amounted to 4700 nM.

Regarding `CCOc1cccc(-c2ccccc2)c1O[C@@H]1C[C@@H](CNC(=O)c2ccc(/C=C3\SC(=O)NC3=O)cc2)N(C(=O)c2ccccc2C(=O)c2ccc(F)cc2)C1`, the IC50 on cPLA2 was 34 nM; in experiment [1], 440 nM.

Turning to `O=C(/C=C/c1ccc(/C=C2\SC(=O)NC2=O)cc1)NC[C@@H]1C[C@@H](Oc2ccccc2-c2ccccc2)CN1C(=O)c1ccccc1C(=O)c1ccc(F)cc1`, the half-maximal inhibitory concentration (IC50) at cPLA2 was 46 nM; in experiment [1] it was 840 nM.

For the compound `CCOc1cccc(-c2ccccc2C(C)C)c1O[C@@H]1C[C@@H](CNC(=O)c2ccc(/C=C3\SC(=O)NC3=O)cc2)N(C(=O)c2ccccc2C(=O)c2ccc(F)cc2)C1`, the concentration for half-maximal inhibition (IC50) at cPLA2 is 26 nM; in experiment [1] it was 490 nM.

For the origin of these results see patent publication US6147100A, “Pyrrolidine derivatives having phospholipase A2 inhibitory activity” (Shionogi & Co., Ltd., priority 1997, dated 2000).
